# From PMC6805867 (2019)
# What was measured:
# Conditions in all cases: broth microdilution, 2 × 10^6 CFU/mL in 1% peptone, 37 °C, 18–22 h, 100% inhibition of growth, performed three times
# [1] = system: Bacillus subtilis (KCTC 3068)
# [2] = system: Pseudomonas aeruginosa (KCTC 1637)
# [3] = system: Staphylococcus aureus (KCTC 1621)
# [4] = system: Escherichia coli (KCTC 1682)
structure (smiles),measurement,setting,value
"CC[C@H](C)[C@H](NC(=O)CN)C(=O)NCC(=O)N[C@@H](C)C(=O)N[C@H](C(=O)N[C@@H](CC(C)C)C(=O)N[C@@H](CCCCN)C(=O)N[C@H](C(=O)N[C@@H](CC(C)C)C(=O)N[C@H](C(=O)N[C@H](C(=O)NCC(=O)N[C@@H](CC(C)C)C(=O)N1CCC[C@H]1C(=O)N[C@@H](C)C(=O)N[C@@H](CC(C)C)C(=O)N[C@H](C(=O)N[C@@H](CO)C(=O)N[C@@H](Cc1c[nH]c2ccccc12)C(=O)N[C@H](C(=O)N[C@@H](CCCCN)C(=O)N[C@@H](CCCNC(=N)N)C(=O)N[C@@H](CCCCN)C(=O)N[C@@H](CCCNC(=N)N)C(=O)N[C@@H](CCC(N)=O)C(=O)N[C@@H](CCC(N)=O)C(N)=O)[C@@H](C)CC)[C@@H](C)CC)[C@@H](C)O)[C@@H](C)O)C(C)C)C(C)C [melittin, reference compound]",MIC Bacillus subtilis (KCTC 3068),[1],8 µg/mL
same,MIC Pseudomonas aeruginosa (KCTC 1637),[2],16 µg/mL
same,MIC Staphylococcus aureus (KCTC 1621),[3],4 µg/mL
same,MIC Escherichia coli (KCTC 1682),[4],4 µg/mL
